Test results from patent US10052296B2, “Formulations for treating pain” (priority 2016, dated 2018).
In brackets after ≈: the same amount, converted by molar mass.

Test: physchem
Settings: thermodynamic from solid

SMILES: CC(=O)Nc1ccc(O)cc1 [Acetaminophen]
- solubility (pH 4, aqueous buffer): 13.8 mg/mL (≈ 91.3 mM)
- solubility (pH 6, aqueous buffer): 13.8 mg/mL (≈ 91.3 mM)
- solubility (water with gabapentin, pH 4, aqueous buffer, Acetaminophen solubility, APAP + GBP together in water, pH 4.0): 32.9 mg/mL
- solubility (water with gabapentin, pH 4, aqueous buffer, solubility of APAP in presence of GBP, in presence of GBP, pH 4.0-8.0): ~30 mg/mL
- solubility (water with gabapentin, pH 4.5, aqueous buffer, Acetaminophen solubility, APAP + GBP together in water, pH 4.5): 31.7 mg/mL
- solubility (water with gabapentin, pH 5, aqueous buffer, Acetaminophen solubility, APAP + GBP together in water, pH 5.0): 30.7 mg/mL
- solubility (water with gabapentin, pH 5.5, aqueous buffer, Acetaminophen solubility, APAP + GBP together in water, pH 5.5): 30.2 mg/mL
- solubility (water with gabapentin, pH 6, aqueous buffer, Acetaminophen solubility, APAP + GBP together in water, pH 6.0): 28.8 mg/mL
- solubility (water with gabapentin, pH 6.5, aqueous buffer, Acetaminophen solubility, APAP + GBP together in water, pH 6.5): 28.4 mg/mL
- solubility (water with gabapentin, pH 7, aqueous buffer, Acetaminophen solubility, APAP + GBP together in water, pH 7.0): 30.5 mg/mL
- solubility (water with gabapentin, pH 7.5, aqueous buffer, Acetaminophen solubility, APAP + GBP together in water, pH 7.5): 27.8 mg/mL
- solubility (water with gabapentin, pH 8, aqueous buffer, Acetaminophen solubility, APAP + GBP together in water, pH 8.0): 31.3 mg/mL
